System: normal human skin fibroblasts
Details: higher concentrations of iron (100 and 200 μM)
Description: Assessment of Cell Proliferation. Normal human skin fibroblasts were suspended in DMEM containing 10% FBS and plated in 35 mm culture dishes (100,000 cells/dish) in quadruplicates. […] These cultures were then washed in PBS and treated with cold 5% trichloroacetic acid twice for 10 minutes at 4° C. For 30 minutes, 0.5 ml of 0.3 N NaOH was added to all dishes, and 200 μl aliquots of each culture were mixed with scintillation fluid and counted.

Q: With ferric ammonium citrate [FAC] as the substance, how does the cellular cytotoxicity read?
A: not due to cellular cytotoxicity

Reference: US9006170B2, “Compositions for elastogenesis and connective tissue treatment” (Human Matrix Sciences, LLC, priority 2004, dated 2015)
